Test results taken from patent US20220257765A1, “TARGET-SPECIFIC CONJUGATE AND USE THEREFOR” (priority 2019, published 2022).

Assays:
MDA-MB-468 = experiment: Binding properties of T-DM1-IR700, flow cytometry fluorescence, HER2-negative MDA-MB-468 cells; set-up: species or system human; conditions: MDA-MB-468 (HER2-negative), incubated 37° C. 6 hours
MDA-MB-468-luc cells = experiment: In vitro NIR-PIT in mixed culture of 3T3/HER2 and MDA-MB-468-luc cells, luciferase activity; format: cell-based, human; conditions: for amount of luminescence (RLU value) of luciferase activity: with NIR-PIT (690 nm, 4 J cm^2), 4 days after treatment
Procedure: 3T3/HER2 cells and MDA-MB-468-luc cells, each in an amount of 5×10^4, were mixed and seeded into a 12-well plate for mixed culture. […] Subsequently, the cells were washed with PBS twice and irradiated with near-infrared light (4 J cm^2) by using an LED with an emission wavelength of 690 nm. After 4 days from treatment, the luciferase activity of the cells were measured, and the effect of NIR-PIT was evaluated. The cells were washed with PBS before the measurement of luciferase activity, and D-luciferin (150 μg/ml, 200 μl) was added to the plate, followed by quantitatively measuring the luminescence intensity of the luciferase with a plate reader.

3T3/HER2-luc cells = experiment: Cell proliferation inhibition activity (luciferase activity, survival rate), 3T3/HER2-luc; format: cell-based, mouse; conditions: for antiproliferative effect: HER2-positive 3T3/HER2-luc cells, 4 days, no light
Procedure: (§1) 3T3/HER2-luc cells and MDAMB-468-luc cells each in an amount of 1×10^4 were individually seeded into a 24-well plate together with 1 ml of a medium. […] After 4 days, the luciferase activity was measured with a plate reader to assess the survival of HER2-negative cells.

[1] = system: 3T3/HER2 cells and MDAMB-468-luc cells mixed tumors; experiment: In vivo NIR-PIT, mixed 3T3/HER2 and MDAMB-468-luc subcutaneous tumors; set-up: species or system nude mice; conditions: for luciferase activity of tumors (RLU value): T-DM1-IR700 3.6 μg/g i.v.
Procedure: 3T3/HER2 cells (5×10^6) and MDAMB-468-luc cells (1×10^7) were mixed in 150 μl of PBS, and transplanted subcutaneously into both dorsal buttocks of 8- to 10-week-old nude mice. The therapeutic effect of NIR-PIT was quantitatively evaluated by measuring the estimated tumor volume and the luciferase activity of tumors. The major axis and short axis of the tumors were measured, and the estimated tumor volume was calculated using “major axis×short axis^2×½.” Mice with an estimated tumor volume greater than 100 mm^3 were used for the experiment. The luciferase activity of tumors was measured by intraperitoneally administering D-luciferin (7.5 mg/mL, 200 ul), using an IVIS (registered trademark) imaging system. The unit of luminescence to be measured was radiance, and analysis was performed with Living Image Software (registered trademark). […] After four days from subcutaneous implantation of cells, NIR-PIT was performed using a laser (15 J cm^2 after one day from i.v., 30 J cm^2 after 2 days from i.v.). After treatment, measurement was continued until the major axis of the tumors exceeded 20 mm.

MDAMB-468-luc cells = experiment: Cell proliferation inhibition activity (luciferase activity, survival rate), MDAMB-468-luc; format: cell-based, human; conditions: HER2-negative MDAMB-468-luc cells
Procedure: as §1

Row | Substance | fluorescence intensity by flow cytometry (MDA-MB-468) | luciferase activity (MDA-MB-468-luc cells; conjugate alone, without NIR-PIT, 1, 5 or 10 μg/mL) | amount of luminescence (RLU value) of luciferase activity (MDA-MB-468-luc cells) | difference in IC50 between the two types of cells (3T3/HER2-luc cells; 3T3/HER2-luc vs MDAMB-468-luc) [fold] | antiproliferative effect (3T3/HER2-luc cells) | difference between group treated with NIR-PIT together with T-DM1-IR700 and group treated with T-DM1-IR700 alone ([1]; FIG. 7, 3.6 μg/g i.v.) | luciferase activity of tumors (RLU value) ([1]; left-side tumors without irradiation) | tumor volume ([1]; right side (irradiated) vs left side (not irradiated), T-DM1-IR700 i.v.) | luciferase activity of tumors (RLU value) ([1]; right-side tumors irradiated with a laser) | antiproliferative effect (MDAMB-468-luc cells; high concentration, 4 days) | antiproliferative effect (MDAMB-468-luc cells; normal concentrations at which side effects do not occur) | antiproliferative effect (MDAMB-468-luc cells; 4 days)
1 | T-DM1 (Trastuzumab+N2′-Deacetyl-N2′-Maytansine)-IR700 [T-DM1-IR700] | did not show enhanced fluorescence | dose-dependent decrease | significantly decreased | 50 | exhibited an antiproliferative effect | significant difference | not decreased | smaller than that on the left side | decreased | antiproliferative effect was also observed | no antiproliferative effect | –
2 | Tra-IR700 [reference compound] | – | – | not decreased | – | mild antiproliferative effect | – | – | – | – | – | – | did not exhibit an antiproliferative effect
